Results reported in patent US10189836B2, “Therapeutic compounds, compositions and methods of use thereof” (Genentech, Inc., priority 2015, dated 2019).

Protein sequences, listed by entry. Tags and fused reporters are not part of them. Residues count along the entry.
UniProt O60674, 849-1124: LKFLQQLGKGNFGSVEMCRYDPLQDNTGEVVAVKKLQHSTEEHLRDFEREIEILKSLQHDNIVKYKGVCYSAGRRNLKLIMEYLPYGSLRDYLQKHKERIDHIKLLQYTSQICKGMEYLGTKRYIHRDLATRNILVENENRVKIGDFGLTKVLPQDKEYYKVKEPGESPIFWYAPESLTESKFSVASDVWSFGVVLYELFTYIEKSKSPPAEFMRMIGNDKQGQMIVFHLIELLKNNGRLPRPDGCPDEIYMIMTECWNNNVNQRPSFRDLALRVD
UniProt P23458, 875-1153: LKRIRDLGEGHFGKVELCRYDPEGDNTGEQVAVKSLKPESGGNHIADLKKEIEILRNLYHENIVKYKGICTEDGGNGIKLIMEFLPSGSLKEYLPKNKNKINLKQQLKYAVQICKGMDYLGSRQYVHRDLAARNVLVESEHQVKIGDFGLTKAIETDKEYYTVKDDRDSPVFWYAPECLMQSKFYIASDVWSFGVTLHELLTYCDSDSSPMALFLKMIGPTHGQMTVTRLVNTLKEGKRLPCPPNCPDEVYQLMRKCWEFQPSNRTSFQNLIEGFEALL

Legend:
[1] = target: isolated recombinant JAK2 kinase domain (Homo sapiens (Human), UniProt O60674); assay: JAK2 enzyme assay (Caliper LabChip, Ki); assay type: biochemical; settings: 0.2 nM enzyme, ATP 25 μM
[2] = target: isolated recombinant JAK1 kinase domain (Homo sapiens (Human), UniProt P23458); assay: JAK1 enzyme assay (Caliper LabChip, Ki); assay type: biochemical; settings: 1.5 nM enzyme, ATP 25 μM

Structure (SMILES) | Ki [1] [nM] | Ki [2] [nM]
CN1CCN(C(=O)Cn2cc(Nc3nc4c(N5C[C@H]6CC[C@@H](C5)[C@H]6NCCC(F)(F)F)cccn4n3)cn2)CC1 [Example 145, 1-(4-methylpiperazin-1-yl)-2-(4-((8-((1R,5 S,8r)-8-((3,3,3-trifluoropropyl)amino)-3-azabicyclo[3.2.1]octan-3-yl)-[1,2,4]triazolo[1,5-a]pyridin-2-yl)amino)-1H-pyrazol-1-yl)ethanone] | 2.9 | 
Cc1ccc(CO[C@H]2[C@@H]3CC[C@H]2CN(c2cccn4nc(Nc5cnn(CC(=O)N6CCN(C)CC6)c5)nc24)C3)cn1 [Example 151, 1-(4-methylpiperazin-1-yl)-2-[4-[[8-[rac-(1S,5R)-8-[(6-methyl-3-pyridyl)methoxy]-3-azabicyclo[3.2.1]octan-3-yl]-[1,2,4]triazolo[1,5-a]pyridin-2-yl]amino]pyrazol-1-yl]ethanone] | 1.2 | 
CN1CCN(C(=O)Cn2cc(Nc3nc4c(N5C[C@H]6CC[C@@H](C5)[C@@H]6OCc5ccncc5)cccn4n3)cn2)CC1 [Example 189, 1-(4-methylpiperazin-1-yl)-2-(4-((8-((1R,5 S,8s)-8-(pyridin-4-ylmethoxy)-3-azabicyclo[3.2.1]octan-3-yl)-[1,2,4]triazolo[1,5-a]pyridin-2-yl)amino)-1H-pyrazol-1-yl)ethanone] | 0.3 | 

Results, then the compound that gave them:

Ki [1] [nM] | Ki [2] [nM] | Structure (SMILES)
1.3 |  | CN1CCN(C(=O)Cn2cc(Nc3nc4c(N5C[C@H]6CC[C@@H](C5)[C@H]6OCc5ccncc5)cccn4n3)cn2)CC1 [Example 144, 1-(4-methylpiperazin-1-yl)-2-[4-[[8-[rac-(1S,5R)-8-(4-pyridylmethoxy)-3 - azabicyclo[3.2.1]octan-3-yl]-[1,2,4]triazolo[1,5-a]pyridin-2-yl]amino]pyrazol-1-yl]ethanone]
0.6 | 0.6 | COc1ccc(CO[C@H]2[C@@H]3CC[C@H]2CN(c2cccn4nc(Nc5cnn(CC(=O)N6CCN(C)CC6)c5)nc24)C3)cc1 [Example 163, 1-(4-methylpiperazin-1-yl)-2-[4-[[8-[rac-(1S,5R)-8-[(4-methoxyphenyl)methoxy]-3-azabicyclo[3.2.1]octan-3-yl]-[1,2,4]triazolo[1,5-a]pyridin-2-yl]amino]pyrazol-1-yl]ethanone]
1.1 | 0.6 | CN1CCN(C(=O)Cn2cc(Nc3nc4c(N5C[C@H]6CC[C@@H](C5)[C@H]6OCc5cccc(C(=O)N(C)C)c5)cccn4n3)cn2)CC1 [Example 187, N,N-dimethyl-3-[[rac-(1S,5R)-3-[2-[[1-[2-(4-methylpiperazin-1-yl)-2-oxo-ethyl]pyrazol-4-yl]amino]-[1,2,4]triazolo[1,5-a]pyridin-8-yl]-3-azabicyclo[3.2.1]octan-8-yl]oxymethyl]benzamide]
